Consider two compounds from paper PMC8939909 (Journal of medicinal chemistry, 2021).

Experiment [1] has as its system panel of PTPs (class I tyrosine-specific and dual-specific PTPs).
Experiment [2] deals with T1, human LMPTP-A (Homo sapiens, UniProt P24666).
T1 sequence (P24666 1-158): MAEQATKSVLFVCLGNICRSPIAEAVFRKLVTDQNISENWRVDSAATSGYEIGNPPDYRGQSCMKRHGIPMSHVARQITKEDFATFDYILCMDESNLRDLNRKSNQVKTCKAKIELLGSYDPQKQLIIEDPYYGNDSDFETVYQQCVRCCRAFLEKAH
Briefly: LMPTP biochemical inhibition assay. The settings on record: nitrogen incorporation in the benzyl ring.

With `Cc1ccccc1-c1nc2c(N)ncn(Cc3c(Cl)cccc3Cl)c-2n1` [5d], in experiment [1], the “selectivity for LMPTP over all other PTPs tested” value was > 1,000 X.

`Nc1ncn(Cc2c(Cl)cncc2Cl)c2ncnc1-2` [6g]: the “selectivity for LMPTP, in words” value in experiment [1] is “high selectivity”. In addition, the “fold boost in potency (LMPTP)” value in experiment [2] stood at 3 fold.
